The numbers were not newly measured in patent publication US5441941A, “1,2-dihydroellipticines with activity against CNS specific cancer” (The United States of America as represented by the …, priority 1993, dated 1995), which cites them from elsewhere.

Series [1] concerns mouse lymphoid leukemia L-1210. The following applies: in vivo; cited from earlier work.
The test system of another series is Sarcoma 180 (solid). As to conditions: in vivo; cited from earlier work.

Turning to `COc1ccc2[nH]c3c(C)c4ccncc4c(C)c3c2c1` [9-methoxyellipticine], the antitumor activity result in series [1] is “effective against the tumor of animals”. For the same compound, the “effect against tumor of animals” value in the series with Sarcoma 180 (solid) is “effective against the tumor of animals”.
